Here are results for one molecule from patent EP1310247A1 (priority 1997, dated 1999).

The assay concerns Sprague Dawley rats. The experiment in a line: Nasal airway pressure / resistance in anesthetized rats, normal and histamine-challenged. The assay is classed as in vivo. The following applies: non-histamine-challenged rats; 100% dose.

For the molecule `CN[C@H](C)[C@@H](O)c1ccccc1` [(+)-ephedrine], the “reduction in airway passage resistance compared with (-)-ephedrine” value is “significantly greater reduction in airway passage resistance”.
